According to patent US7358237B2, “Inducible nitric oxide synthase binds, S-nitrosylates, and activates cyclooxygenase-2” (The Johns Hopkins University, priority 2005, dated 2008):

Molecular target: T1, iNOS and COX2 binding (Mus musculus, UniProt P29477+Q05769)
T1 construct: endogenous in cells; host or cells: RAW264.7 murine macrophages induced with LPS/IFNγ
Assay: Co-immunoprecipitation of iNOS and COX2 in LPS/IFNγ-induced RAW264.7 cells
Format: cell-based, murine

`CS(=O)(=O)c1ccc(-n2nc(C(F)(F)F)cc2-c2ccc(F)cc2)cc1` [SC58125] was tested, and the “Co-precipitation of iNOS and COX2” value was “unaffected”.
